# Data: PubChem BioAssay AID652162 (Broad Institute, 2013)
# This is a selection; strong and weak results do not stand in their true shares. Activity calls are given as the source filed them. Cut-off read from the data, not from the text of the source: active = inhibition above about 10%; inactive = the rest.
# Target: Toxin B (Clostridioides difficile) (UniProt P18177)
# Assay: TcdB glycohydrolase inhibitors, primary screen, biochemical, single point, plate reader (AID 652162)
# Details: TcdB glycohydrolase enzymatic assay, at 9.99 µM, stronger effect = higher value
row,SMILES,inhibition
1,CCC(=O)N(c1ccccc1)C1(COC)CCN(CCc2cccs2)CC1,inactive: 0.026%
2,CCC(=O)N(c1ccccc1)C1(COC)CCN(CCn2nnn(CC)c2=O)CC1,inactive: -0.962%
